The source of these data is US7265118B2, “Regulation of substrate activity” (Point Therapeutics, Inc., priority 1998, dated 2007).

Chains of the proteins cited; added tags and fusions are not shown. Residues count along the entry.
UniProt P28843, 37-760 limits assumed: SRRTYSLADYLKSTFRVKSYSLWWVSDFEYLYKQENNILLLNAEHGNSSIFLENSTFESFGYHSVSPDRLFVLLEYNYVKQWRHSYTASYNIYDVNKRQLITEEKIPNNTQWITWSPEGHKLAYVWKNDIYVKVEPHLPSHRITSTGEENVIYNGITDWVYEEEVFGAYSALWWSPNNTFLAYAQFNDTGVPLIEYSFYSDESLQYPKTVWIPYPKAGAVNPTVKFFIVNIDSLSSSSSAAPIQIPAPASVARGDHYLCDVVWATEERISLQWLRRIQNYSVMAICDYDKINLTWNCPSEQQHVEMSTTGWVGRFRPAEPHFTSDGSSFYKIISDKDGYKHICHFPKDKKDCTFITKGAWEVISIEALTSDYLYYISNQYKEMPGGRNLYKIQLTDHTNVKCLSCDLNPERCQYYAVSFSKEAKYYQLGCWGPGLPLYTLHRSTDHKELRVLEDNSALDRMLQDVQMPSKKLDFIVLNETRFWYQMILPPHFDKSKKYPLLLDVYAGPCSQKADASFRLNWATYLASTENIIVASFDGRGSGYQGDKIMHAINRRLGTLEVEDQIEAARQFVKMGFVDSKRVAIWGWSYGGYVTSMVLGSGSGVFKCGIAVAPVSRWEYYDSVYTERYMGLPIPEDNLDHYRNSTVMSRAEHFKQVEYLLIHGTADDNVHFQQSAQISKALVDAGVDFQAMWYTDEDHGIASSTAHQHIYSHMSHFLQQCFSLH

The experiment deals with serum DPP-IV (Mus musculus, UniProt P28843). Particulars: mice, gavage, blood two hours post administration.

Where two headings read alike, the source gives them in different places.

As to `CC(C)C(N)C(=O)N1CCCC1B(O)O` (stereo not drawn) [Val-boroPro], the “inhibition of serum DPP-IV activity” value by setting is: (dose 2 μg) “Total inhibition”; (dose 5 μg) “Total inhibition”; (doses below 2 μg) “dose dependent decrease of DPP-IV inhibition”.
